Literature values in article PMC6636548.

Target: Albumin (Homo sapiens) (UniProt P02768)
Experiment: SPR, acidic pH

Kd: 1000 nM
Substance: FcRn (from UniProt P55899)
